US20210147552A1 (UNIVERSITETET I OSLO, published 2021)
“And” between values parts separate entries of the source, which are not always exact repeats. Equal entries are not always repeated.

Assays:
HLA-DQ2.5:DQ2.5-glia-α2 [1] = molecular target: T1, HLA-DQ2.5:DQ2.5-glia-α2 (human; wheat); assay: SPR, Fab, mean of the runs
T1 chain 1: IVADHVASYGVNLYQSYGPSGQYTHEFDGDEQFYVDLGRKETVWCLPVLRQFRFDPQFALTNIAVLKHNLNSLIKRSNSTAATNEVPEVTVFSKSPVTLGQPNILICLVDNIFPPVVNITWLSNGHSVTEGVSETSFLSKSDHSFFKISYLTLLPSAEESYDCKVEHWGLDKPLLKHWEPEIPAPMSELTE
T1 chain 2: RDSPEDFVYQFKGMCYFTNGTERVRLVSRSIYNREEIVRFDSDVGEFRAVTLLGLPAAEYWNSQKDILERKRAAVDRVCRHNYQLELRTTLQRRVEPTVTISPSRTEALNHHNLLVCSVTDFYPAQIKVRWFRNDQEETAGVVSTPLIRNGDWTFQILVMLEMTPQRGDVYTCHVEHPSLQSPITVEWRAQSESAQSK
T1 chain 3: PQPELPYPQPE

HLA-DQ2.5:DQ2.5-glia-α2 [2] = molecular target: T1, HLA-DQ2.5:DQ2.5-glia-α2; assay: SPR kinetics on captured pMHC, 1:1 Langmuir
HLA-DQ2.5:DQ2.5-glia-α1a [3] = molecular target: T2, HLA-DQ2.5:DQ2.5-glia-α1a (human; wheat); assay: SPR, Fab, mean of the runs
T2 chain 1: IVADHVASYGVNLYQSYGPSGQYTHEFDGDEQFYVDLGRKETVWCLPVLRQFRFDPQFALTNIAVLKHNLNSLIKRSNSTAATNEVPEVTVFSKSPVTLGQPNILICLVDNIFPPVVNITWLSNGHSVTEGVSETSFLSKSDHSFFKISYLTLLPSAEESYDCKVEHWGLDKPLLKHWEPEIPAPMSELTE
T2 chain 2: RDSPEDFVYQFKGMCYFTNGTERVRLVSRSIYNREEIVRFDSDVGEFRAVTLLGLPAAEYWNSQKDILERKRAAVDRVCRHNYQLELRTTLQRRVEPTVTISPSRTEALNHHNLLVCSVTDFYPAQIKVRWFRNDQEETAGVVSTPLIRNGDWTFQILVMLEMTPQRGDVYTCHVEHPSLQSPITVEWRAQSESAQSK
T2 chain 3: QLQPFPQPELPY

HLA-DQ2.5:DQ2.5-glia-α1a [4] = molecular target: T2, HLA-DQ2.5:DQ2.5-glia-α1a; assay: SPR kinetics on captured pMHC, 1:1 Langmuir
HLA-DQ2.5:DQ2.5-glia-α1a [5] = molecular target: T2, HLA-DQ2.5:DQ2.5-glia-α1a; assay: SPR, Fab
HLA-DQ2.5:DQ2.5-glia-α1a [6] = molecular target: T2, HLA-DQ2.5:DQ2.5-glia-α1a; assay: SPR, 0.25 µM hIgG1 or scFv over captured pMHC
HLA-DQ2.5:DQ2.5-glia-α2 [7] = molecular target: T1, HLA-DQ2.5:DQ2.5-glia-α2; assay: SPR single cycle kinetics
HLA-DQ2.5:DQ2.5-glia-α2 [8] = molecular target: T1, HLA-DQ2.5:DQ2.5-glia-α2; assay: SPR single cycle, from on- and off-rates, mean of 2
HLA-DQ2.5:DQ2.5-glia-α1a [9] = molecular target: T2, HLA-DQ2.5:DQ2.5-glia-α1a; assay: SPR steady state from single cycle runs, scFv over captured pMHC

B1: Fab 3.C11 (Fab, V domains shown)
VH: QVQLVQSGAEVKKPGSSVKVSCKASGGTVRSRVHAISWVRQAPGQGLEWMGGIIPIFGTANYAQKFQGRVTITADESTSTAYMELSSLRSEDTAVYYCARDVQRMGMDVWGQGTTVTVSS
VL: DIQMTQSPSSVSTSVGDRVTITCRASQDISNWLAWYQQKPGKAPKLLIYDSSTLQSGVPSRFSGSGSGTDFTLTISTLQPEDFATYYCQQFNSYPLTFGGGTKVDIK
notes: Fab fragment
Question: What does the source list for B1?
Answer: Kd (HLA-DQ2.5:DQ2.5-glia-α2 [1]): 0.088 nM; Kd (HLA-DQ2.5:DQ2.5-glia-α2 [2]): 0.0904 nM and 0.0946 nM and 0.0806 nM; koff (HLA-DQ2.5:DQ2.5-glia-α2 [2]): 0.000113 s⁻¹ and 0.000112 s⁻¹ and 0.000121 s⁻¹; kon (HLA-DQ2.5:DQ2.5-glia-α2 [2]): 1.19e+06 M⁻¹ s⁻¹ and 1.39e+06 M⁻¹ s⁻¹ and 1.34e+06 M⁻¹ s⁻¹

B2: Fab 4.7C (Fab, V domains shown)
VH: QVQLQQSGPGLVKPSQTLSLTCAISGDSVSSNSAAWNWIRQSPSRGLEWLGRTYYRSKWYNDYAVSVKSRITINPDTSKNQFSLQLNSVTPEDTAVYYCARDRTTGWHPYGMDVWGQGTTVTVSS
VL: DIQVTQSPSFLSASVGDRVTITCRASHDISSYLAWYQHKPWKAPKLLIHAASILQSGVPSRFSGSGSGTEFTLTISSLQPEDFATYYCQDLNSYPLFGQGTRLEIK
notes: Fab fragment
Question: What does the source list for B2?
Answer: Kd (HLA-DQ2.5:DQ2.5-glia-α1a [3]): 0.17 nM; Kd (HLA-DQ2.5:DQ2.5-glia-α1a [4]): 0.197 nM and 0.145 nM; koff (HLA-DQ2.5:DQ2.5-glia-α1a [4]): 0.000177 s⁻¹ and 9.68e-05 s⁻¹; kon (HLA-DQ2.5:DQ2.5-glia-α1a [4]): 901000 M⁻¹ s⁻¹ and 670000 M⁻¹ s⁻¹

B3: Fab RF117 (Fab, V domains shown)
VH: QVQLQQSGPGLVKPSQTLSLTCAISGDSVSSSSAAWNWIRQSPSRGLEWLGRTYYRSKWYNDYAVSVKSRITINPDTSKNQFSLQLNSVTPEDTAVYYCARDRTTGWHPYGMDVWGQGTTVTVSS
VL: DVQVTQSPSFLSASVGDRVTITCRASHDISSYLAWYQHKPWKAPKLLIHAASVLQSGVPSRFSGSGSGTEFTLTISSLQPEDFATYYCQNLNSYPLFGQGTRLEIK
notes: Fab fragment; combination mutant of 5.6A with the CDR H3 of 4.7C
Question: How did the “fold improvement in affinity against the mother clone 107” value (HLA-DQ2.5:DQ2.5-glia-α1a [5]) turn out when B3 was run?
Answer: The value was about 3600 fold.

Question: What about the Kd (HLA-DQ2.5:DQ2.5-glia-α1a [3]) of the same binder?
Answer: The Kd was 20000 nM.

Question: And the kon (HLA-DQ2.5:DQ2.5-glia-α1a [4])?
Answer: The kon was 1.83e+06 M⁻¹ s⁻¹ and 2.05e+06 M⁻¹ s⁻¹.

B4: R2A1-8E hIgG1 (antibody, V domains shown)
VH: QVQLQQSGPGLVKPSQTLSLTCAISGDSVSSNSAAWNWIRQSPSRGLEWLGRTYYRSKWYNDYAVSVKSRITINPDTSKNQFSLQLNSVTPEDTAVYYCARDSSSGWHPYGMDVWGQGTTVTVSS
VL: DIQVTQSPSFLSASVGDRVTITCRASHDISSYLAWYQHKPGKAPKLLIHAASILQSGVPSRFSGSGSGTEFTLTISSLQPEDFATYYCQQLNSYPLLTFGGGTKVDIKR
notes: full-length human IgG1/kappa made in HEK293E; heavy chain constant region with N297G; also called mAb R2A1-8E
Question: B4 was tested. Which “fold increase in half-life against the scFv” value (shortened to “fold increase in half-life”) (HLA-DQ2.5:DQ2.5-glia-α1a [6]) did it give?
Answer: Its value is about 160 fold.

B5: R3A2-9F hIgG1 (antibody)
heavy: not shown
light: DIQVTQSPSFLSASVGDRVTITCRASHDISSYLAWYQHKPGKAPKLLIHAASILQSGVPSRFSGSGSGTEFTLTISSLQPEDFATYYCQDLNSYPLFGQGTRLEIKRTVAAPSVFIFPPSDEQLKSGTASVVCLLNNFYPREAKVQWKVDNALQSGNSQESVTEQDSKDSTYSLSSTLTLSKADYEKHKVYACEVTHQGLSSPVTKSFNRGEC
notes: also called mAb R3A2-9F
Question: For B5, which “fold increase in half-life” value (HLA-DQ2.5:DQ2.5-glia-α1a [6]) is on record?
Answer: The value was about 160 fold.

B6: R4A1-3A (107) hIgG1 (antibody, V domains shown)
VH: QVQLQQSGPGLVKPSQTLSLTCAISGDSVSSNSAAWNWIRQSPSRGLEWLGRTYYRSKWYNDYAVSVKSRITINPDTSKNQFSLQLNSVTPEDTAVYYCARDSSSGWHPYGMDVWGQGTTVTVSS
VL: DIQVTQSPSFLSASVGDRVTITCRASHDISSYLAWYQHKPWKAPKLLIHAASILQSGVPSRFSGSGSGTEFTLTISSLQPEDFATYYCQDLNSYPLFGQGTRLEIKR
notes: full-length human IgG1/kappa made in HEK293E; heavy chain constant region with N297G; also called mAb R4A1-3A
Question: For B6, which “fold increase in half-life” value (HLA-DQ2.5:DQ2.5-glia-α1a [6]) is on record?
Answer: The value was about 160 fold.

B7: 217 scFv (scFv, V domains shown)
VH: QVQLVQSGAEVKKPGSSVKVSCKASGGTFSSYAISWVRQAPGQGLEWMGGIIPIFGTANYAQKFQGRVTITADESTSTAYMELSSLRSEDTAVYYCARGAIGVFSGYFDYWGQGTLVTVSS
VL: not shown
notes: scFv; also called scFv 17
Question: How did the Kd (HLA-DQ2.5:DQ2.5-glia-α2 [7]) turn out when B7 was run?
Answer: The Kd was 5000 nM.

Question: What about the Kd (HLA-DQ2.5:DQ2.5-glia-α2 [8]) of the same binder?
Answer: The Kd was 5080 nM.

B8: 218 scFv (scFv, V domains shown)
VH: QVQLVQSGAEVKKPGSSVKVSCKASGGTFSSYAISWVRQAPGQGLEWMGGIIPIFGTANYAQKFQGRVTITADESTSTAYMELSSLRSEDTAVYYCARGYYYDSSALDYWGQGTLVTVSS
VL: QSALIQPASVSGSPGQSITISCTGTSSDVGGYGYVSWYQHHPGKAPKLIIYDVSNRPSGVSDRFSGSKSANTASLTISGLQTEDEADYYCSSYTSSGTVLFGGGTKLTVL
notes: scFv; also called scFv 18
Question: For B8, which Kd (HLA-DQ2.5:DQ2.5-glia-α2 [8]) is on record?
Answer: Its Kd is 2400 nM.

B9: 220 scFv (scFv, V domains shown)
VH: QVQLVESGAEVKKPGSSVKVSCKASGGTFSSYAISWVRQAPGQGLEWMGGIIPIFGTANYAQKFQGRATITADESTSTAYMELSSLRSEDTAVYYCARGRNTYCSGGSCYSPHFDYWGQGTLVTVSS
VL: not shown
notes: scFv; also called scFv20
Question: With B9 as the binder, how does the Kd (HLA-DQ2.5:DQ2.5-glia-α2 [8]) read?
Answer: The Kd was 730 nM.

B10: 221 scFv (scFv, V domains shown)
VH: QVQLVESGAEVKKPGSSVKVSCKASGGTFSSYAISWVRQAPGQGLEWMGGIIPIFGTANYAQKFQGRVTITADESTSTAYMELSSLRSEDTAVYYCARGVPSGYSSGWFYYFDYWGQGTLVTVSS
VL: EIVMTQSPSSLSASVGDRATLSCRASQSVNTNLAWYQQKPGQAPRLLIYGASTRATGSPARFSGSGSGTEFTLTISSLQPGDFATYYCQQYDNYPLTFGQGTKVEIK
notes: scFv; also called scFv 21
Question: Which Kd (HLA-DQ2.5:DQ2.5-glia-α2 [8]) does the source give for B10 here?
Answer: The Kd was 590 nM.

B11: 226 scFv (scFv, V domains shown)
VH: QVQLVQSGAEVKKPGSSVKVSCKASGGTFSSYAISWVRQAPGQGLEWMGGIIPIFGTANYAQKFQGRVTITADESTSTAYMELSSLRSEDTAVYYCARGAGPLWFRELVYFQHWGQGTLVTVSS
VL: EIVMTQSPATLSVSPGERATLSCRVSQNIIKNLAWYQQKPGQAPRLLIYDASTRATGIPARFTGSGSGTEFTLTIDDLQSEDSAVYFCQQYNWWPRFGPGTKVDIK
notes: scFv; also called scFv 26; 261
Question: How did the Kd (HLA-DQ2.5:DQ2.5-glia-α2 [8]) turn out when B11 was run?
Answer: The Kd was 170 nM.

B12: R3A2-9F scFv (scFv, V domains shown)
VH: QVQLQQSGPGLVKPSQTLSLTCAISGDSVSSNSAAWNWIRQSPSRGLEWLGRTYYRSKWYNDYAVSVKSRITINPDTSKNQFSLQLNSVTPEDTAVYYCARDSSSGWHPYGMDVWGQGTTVTVSS
VL: DIQVTQSPSFLSASVGDRVTITCRASHDISSYLAWYQHKPGKAPKLLIHAASILQSGVPSRFSGSGSGTEFTLTISSLQPEDFATYYCQDLNSYPLFGQGTRLEIK
notes: scFv from a naive human phage library, made in E. coli with c-myc and His tags
Question: With B12 as the binder, how does the Kd (HLA-DQ2.5:DQ2.5-glia-α1a [9]) read?
Answer: The Kd was 142 nM.
